Molecular target: T1, GST-PKBα (Homo sapiens, UniProt P31749)
T1 construct: generate a full length cDNA encoding the PKBα gene; made in house; host or cells: human embryonic kidney 293 cells (pEBG2T), serum starved
Assay: Activity of PDK1 preparations towards GST-PKBα
Type: biochemical
Details: in the presence of PtdIns(3,4,5)P3
Method: Assay of PDK1. The assay was carried out in two stages; in the first, GST-PKBα was incubated with PDK1 in the presence of MgATP and phospholipid vesicles to permit activation of GST-PKBα.
[…]. After 10 min at 30° C., the reactions were terminated by spotting the reaction mixture on to p81 phosphocellulose paper. The papers were washed in phosphoric acid and analysed as described previously. A control reaction in which GST-PKBα was omitted was taken as the blank and was always less than 5% of the activity measured in the presence of GST-PKBα. The basal GST-PKBα activity is the activity measured in the absence of PDK1. […].
Phosphorylation of GST-PKB ? by PDK1. The incubations were identical to the Stage 1 described above except that [γ^32P] ATP (200-400 cpm/pmol) was used instead of unlabelled ATP. The reactions were terminated by making the solution 1% (by mass) in SDS. The samples were run on a 7.5% SDS-polyacrylamide gel and, after staining with Coomassie blue, the gels were autoradiographed. The Coomassie blue-staining bands corresponding to GST-PKBα were excised and the ^32P-radioactivity associated with each band was quantified.
Assay of GST-PDK1 and GST-DSTPK61 activity. GST-PDK1 and GST-DSTPK61 were diluted appropriately in Buffer B containing 1 mg/ml bovine serum albumin, and assayed for their ability to activate and phosphorylate GST-PKBα [21]. […]. […]

Chains of the proteins cited; added tags and fusions are not shown. Lines headed by an entry give the natural chain unless they say otherwise; changes in a name come on top.
UniProt P31749: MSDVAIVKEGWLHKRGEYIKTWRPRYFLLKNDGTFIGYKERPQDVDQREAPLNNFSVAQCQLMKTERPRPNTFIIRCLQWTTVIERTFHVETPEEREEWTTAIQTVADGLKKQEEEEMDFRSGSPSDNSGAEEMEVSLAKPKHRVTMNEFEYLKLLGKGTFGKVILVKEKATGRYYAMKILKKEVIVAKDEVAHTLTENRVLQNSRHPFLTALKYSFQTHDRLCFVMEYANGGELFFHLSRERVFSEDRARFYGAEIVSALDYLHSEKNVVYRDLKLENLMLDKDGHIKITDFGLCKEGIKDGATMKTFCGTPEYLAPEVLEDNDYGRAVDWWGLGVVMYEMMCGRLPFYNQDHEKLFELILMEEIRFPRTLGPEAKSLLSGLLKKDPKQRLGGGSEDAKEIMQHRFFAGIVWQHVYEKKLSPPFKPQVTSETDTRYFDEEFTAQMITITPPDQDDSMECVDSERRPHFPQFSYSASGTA

Substance: GST-PDK1 (residues 1 to 556): full length human PDK1 GST fusion expressed in 293 cells
- specific activity towards GST-PKBα: 89 000 U/mg
